Target: wild-type human cardiac sodium channel, hNav1.5 (Homo sapiens, UniProt Q14524)
Assay: Late INa screening assay (PatchXpress whole cell patch clamp, late current generated with Tefluthrin or ATX II)
Type: cell-based
Conditions: test compound at 10 μM
Method: The late sodium current (Late INa) and peak sodium current (Peak INa) assays are performed on an automated electrophysiology platform, PatchXpress 7000A (MDS Analytical Technologies, Sunnyvale, Calif.), which uses the whole cell patch clump technique to measure currents through the cell membrane of up to 16 cells at a time. The assay uses an HEK293 (human embryonic kidney) cell line heterologously expressing the wild-type human cardiac sodium channel, hNav1.5, purchased from Millipore (Billerica, Mass.). No beta subunits were coexpressed with the Na channel alpha subunit. […] Experiments are carried out at 24-27° C.
For both the Late INa and Peak INa assays, series resistance compensation is set to 50% and whole-cell compensation is performed automatically. […] Currents through open sodium channels are automatically recorded and stored in the DataXpress2 database (MDS Analytical Technologies, Sunnyvale, Calif.). Analysis is performed using DataXpress2 analysis software and data are compiled in Excel.
Compound stocks are routinely made in glass vials to 10 mM in dimethyl sulfoxide (DMSO). […]
All compounds are tested to determine their activity in blocking the late sodium current. […] Baseline current in the absence of Na^+ ions is measured at the end of each experiment (after two additions of 0 Na solution—see above) and is used to calculate the percent block by compound.

The chains behind the UniProt entries cited, without tags or fusion partners.
UniProt Q14524, whole entry: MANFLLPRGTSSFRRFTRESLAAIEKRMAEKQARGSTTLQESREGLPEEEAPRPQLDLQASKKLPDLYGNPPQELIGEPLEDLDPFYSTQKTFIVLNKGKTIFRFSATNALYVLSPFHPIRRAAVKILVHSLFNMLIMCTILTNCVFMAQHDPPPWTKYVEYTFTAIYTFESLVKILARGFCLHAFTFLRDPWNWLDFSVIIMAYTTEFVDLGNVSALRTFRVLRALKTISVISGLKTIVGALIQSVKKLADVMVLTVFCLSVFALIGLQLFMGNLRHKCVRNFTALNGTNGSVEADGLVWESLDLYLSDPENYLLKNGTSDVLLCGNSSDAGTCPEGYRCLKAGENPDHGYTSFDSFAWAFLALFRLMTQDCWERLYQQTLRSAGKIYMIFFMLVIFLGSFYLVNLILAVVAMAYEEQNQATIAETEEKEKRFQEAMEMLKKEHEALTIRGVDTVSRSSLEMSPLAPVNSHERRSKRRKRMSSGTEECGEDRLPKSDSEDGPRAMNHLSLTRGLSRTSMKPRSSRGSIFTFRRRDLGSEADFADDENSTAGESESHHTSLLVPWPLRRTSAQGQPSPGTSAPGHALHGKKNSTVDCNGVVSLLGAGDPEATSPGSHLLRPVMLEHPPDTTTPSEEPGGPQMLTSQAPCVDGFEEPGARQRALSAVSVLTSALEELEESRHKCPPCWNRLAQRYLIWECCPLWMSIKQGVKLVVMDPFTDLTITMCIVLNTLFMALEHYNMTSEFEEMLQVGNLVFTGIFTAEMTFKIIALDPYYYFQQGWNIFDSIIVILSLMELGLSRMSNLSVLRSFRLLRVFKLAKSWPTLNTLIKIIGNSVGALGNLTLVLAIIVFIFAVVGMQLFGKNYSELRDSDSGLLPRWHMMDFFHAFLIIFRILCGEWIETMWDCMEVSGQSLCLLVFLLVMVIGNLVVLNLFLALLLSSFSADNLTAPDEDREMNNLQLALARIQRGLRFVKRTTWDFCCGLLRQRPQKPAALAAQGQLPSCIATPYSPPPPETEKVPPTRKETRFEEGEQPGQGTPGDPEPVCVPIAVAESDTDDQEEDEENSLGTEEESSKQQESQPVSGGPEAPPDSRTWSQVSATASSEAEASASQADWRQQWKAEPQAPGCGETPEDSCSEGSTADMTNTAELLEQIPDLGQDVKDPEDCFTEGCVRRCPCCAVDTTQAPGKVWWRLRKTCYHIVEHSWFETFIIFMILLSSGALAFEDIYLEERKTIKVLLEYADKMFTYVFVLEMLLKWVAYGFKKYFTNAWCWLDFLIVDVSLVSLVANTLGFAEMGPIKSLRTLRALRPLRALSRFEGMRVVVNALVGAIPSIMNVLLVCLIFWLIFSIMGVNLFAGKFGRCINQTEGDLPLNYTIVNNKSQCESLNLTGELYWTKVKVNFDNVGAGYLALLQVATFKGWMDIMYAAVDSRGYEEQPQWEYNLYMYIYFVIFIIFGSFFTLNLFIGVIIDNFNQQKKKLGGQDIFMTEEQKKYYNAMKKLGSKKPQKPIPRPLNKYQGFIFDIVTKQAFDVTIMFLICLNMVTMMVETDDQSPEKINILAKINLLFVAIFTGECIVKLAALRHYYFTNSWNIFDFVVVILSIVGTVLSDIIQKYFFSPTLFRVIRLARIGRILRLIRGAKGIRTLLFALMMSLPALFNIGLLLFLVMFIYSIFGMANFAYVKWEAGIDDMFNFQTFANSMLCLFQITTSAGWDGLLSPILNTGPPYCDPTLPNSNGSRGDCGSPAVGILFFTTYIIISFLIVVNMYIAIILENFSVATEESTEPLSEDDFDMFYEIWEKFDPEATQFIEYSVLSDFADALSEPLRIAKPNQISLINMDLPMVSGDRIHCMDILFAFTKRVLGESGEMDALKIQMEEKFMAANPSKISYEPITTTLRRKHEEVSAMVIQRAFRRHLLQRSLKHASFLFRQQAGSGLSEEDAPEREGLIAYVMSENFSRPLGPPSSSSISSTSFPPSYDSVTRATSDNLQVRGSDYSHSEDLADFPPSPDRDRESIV

## CN(C)CCC1=C(C(=O)OCc2ccccc2)C(c2cccc3ccccc23)n2nnnc2N1 (stereo not shown) [PT-338, benzyl 5-(2-(dimethylamino)ethyl)-7-(naphthalen-1-yl)-4,7-dihydrotetrazolo[1,5-a]pyrimidine-6-carboxylate]
  Late INa % blk: 56.3%

— patent US20090181986A1, “SUBSTITUTED HETEROCYCLIC COMPOUNDS” (priority 2007, published 2009)
